Assay results as given in patent US6750228B1, “Aromatic sulfone hydroxamic acid metalloprotease inhibitor” (priority 1997, dated 2004).

Legend:
Test in all cases: biochemical
MMP-13 = target: T1, MMP-13 (Homo sapiens, UniProt P45452); details: recombinant human MMP-13, MCA peptide substrate 4 μM, pH 7.5, room temperature
T1 construct: made in house; host or cells: baculovirus / insect cells

MMP-1 = target: T2, MMP-1 (Homo sapiens, UniProt P03956)
T2 construct: made in house; host or cells: transfected HT-1080 cells (provided by Dr. Harold Welgus, Washington University)
T2 sequence (P03956 100-469): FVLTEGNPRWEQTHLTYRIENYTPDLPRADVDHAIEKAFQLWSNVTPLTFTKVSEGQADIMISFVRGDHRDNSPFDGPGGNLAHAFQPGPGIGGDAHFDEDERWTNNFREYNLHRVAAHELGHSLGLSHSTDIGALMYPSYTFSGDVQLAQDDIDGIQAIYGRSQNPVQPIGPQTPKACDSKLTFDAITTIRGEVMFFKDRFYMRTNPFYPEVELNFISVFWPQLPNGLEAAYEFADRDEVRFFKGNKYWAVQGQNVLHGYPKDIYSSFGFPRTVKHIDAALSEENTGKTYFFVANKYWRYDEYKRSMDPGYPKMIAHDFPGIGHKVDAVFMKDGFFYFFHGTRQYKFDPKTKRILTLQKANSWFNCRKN

MMP-2 = target: T3, MMP-2 (Homo sapiens, UniProt P08253); details: MMP-2 IC50 (nM), recombinant human MMP-2, MCA peptide substrate 4 μM, pH 7.5, room temperature
T3 construct: made in house; provided by Dr. Gregory Goldberg, Washington University
T3 sequence (P08253 110-660): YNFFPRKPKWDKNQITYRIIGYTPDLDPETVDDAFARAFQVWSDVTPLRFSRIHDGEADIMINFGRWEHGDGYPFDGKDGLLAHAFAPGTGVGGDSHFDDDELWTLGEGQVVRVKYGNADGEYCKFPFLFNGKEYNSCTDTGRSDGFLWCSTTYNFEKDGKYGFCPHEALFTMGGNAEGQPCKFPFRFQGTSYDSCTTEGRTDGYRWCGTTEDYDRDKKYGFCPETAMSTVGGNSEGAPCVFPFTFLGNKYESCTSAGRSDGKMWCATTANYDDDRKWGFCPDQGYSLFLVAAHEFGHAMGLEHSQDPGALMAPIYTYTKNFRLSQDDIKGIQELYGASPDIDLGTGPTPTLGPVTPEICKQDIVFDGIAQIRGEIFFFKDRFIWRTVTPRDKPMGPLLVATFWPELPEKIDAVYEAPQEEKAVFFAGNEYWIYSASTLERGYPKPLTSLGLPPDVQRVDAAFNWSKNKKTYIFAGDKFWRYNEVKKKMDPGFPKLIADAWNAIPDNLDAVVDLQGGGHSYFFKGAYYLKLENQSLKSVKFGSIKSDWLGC

Row | SMILES | IC50 (MMP-13; MMP-13 IC50 (nM)) | IC50 (MMP-13; read-out: MMP-13 IC50) | IC50 (MMP-1) | IC50 (MMP-1; read-out: MMP-1 IC50, pH 7.5) | IC50 (MMP-2)
1 | O=C(NO)C1(S(=O)(=O)c2ccc(Oc3ccc(C(F)(F)F)cc3)cc2)CCN(C2CC2)CC1 [Example 269] | 0.2 nM |  |  |  | 
2 | O=C(NO)C1(S(=O)(=O)c2ccc(Oc3ccc(C(F)(F)F)cc3)cc2)CCN(C2CC2)CC1 [Example 270] |  | 1 nM | > 10000 nM |  | 
3 | O=C(NO)C1(S(=O)(=O)c2ccc(Oc3ccc(C(F)(F)F)cc3)cc2)CCN(C2CC2)CC1 [Example 271] |  | 0.3 nM |  | > 10000 nM | 
4 | CC(=O)N1CCC(C(=O)NO)(S(=O)(=O)c2ccc(Oc3ccc(OC(F)(F)F)cc3)cc2)CC1 [Example 272, 1-Acetyl-N-hydroxy-4-[[4-[4-(trifluoromethoxy)phenoxy]-phenyl]sulfonyl]-4-piperidinecarboxamide] | 0.2 nM |  | 3600 nM |  | 0.1 nM

Like-named read-outs stand apart in the source and are kept apart here.
